# Results from patent publication US20140222443A1, “MOLECULAR PROFILING FOR CANCER” (priority 2011, published 2014).
# Assays:
# [1] = system: HER2 positive breast cancers; assay: Response of HER2 positive breast cancer patients to trastuzumab; format: in vivo, human; details: after excluding patients unlikely to respond (PIK3CA mutation, lack of PTEN, p95 HER2 truncation)
# Text: An illustrative benefit of the molecular profiling approach is illustrated in FIG. 46. For every 100 HER2+ patients, only about 30 (30%) will be Responders to treatment with trastuzumab. Molecular profiling according to the Example identifies 50 (50%) out of the 70 patients (70%) not likely to respond, e.g., because of PIK3CA mutations (25%), lack of PTEN (15%) or a p95 HER2 truncation (10%). HER2 spans the cell membrane and trastuzumab binds the external portion of the protein. However, most HER2 tests, including the FDA approved tests available from Dako (Dako North America, Inc., Carpinteria, Calif.) and Ventana (Ventana Medical Systems, Inc., Tucson, Ariz.), target the internal domain of HER2. Profiling according to the invention uses two antibodies for HER2: one with affinity to the internal domain, another with affinity to both the internal and external domains. If the latter antibody is negative but the tests targeting the internal domain are positive (e.g., the FDA approved tests), then HER2 is “p95 truncated” and trastuzumab will not be effective. By identifying patients unlikely to respond, efficacy of trastuzumab for a selected population can be increased from 30% to 60%. Furthermore, the molecular profiling methods of the invention can identify candidate treatments that are more likely to be effective in the trastuzumab non-responders.
# [2] = system: HER2 positive breast cancers; details: unselected HER2+ patients; cited from earlier work
substance,measurement,setting,value
trastuzumab,efficacy for a selected population,[1],60%
same,percentage of HER2 positive breast cancers likely to respond (Responders),[2],about 30%
